Earlier results, collected in patent US6489350B1, “Methods for treating neuropathic pain using heteroarylmethanesulfonamides” (Elan Pharmaceuticals, Inc., priority 1999, dated 2002).

System: common receptor sites (benzodiazepine, glutamate, NMDA, quisqualate, kainate, glycine, adrenergic, adenosine, cholinergic, dopamine, histamine H1, serotonin …)
Conditions: concentrations up to 100 μM; cited from earlier work

NCC1(CC(=O)O)CCCCC1 [Gabapentin, 1-(aminomethyl)cyclohexaneacetic acid]
Affinity for common receptor sites in radioligand binding assays: did not exhibit affinity
